Each structure is given as a SMILES string. Where “and” joins values, the source holds several entries; their conditions need not be identical. Equal values may be shown once.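 Results reflect a 48-hour exposure of cells in 96-well plates to compound at five concentrations. The concentration for 50% growth inhibition is given as GI50. TGI marks complete inhibition of growth.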

Test systems include COLO 205 colon; HCT-116 colon; HOP-18 NSCLC; HS 578T breast; KM20L2 colon; LOX IMVI melanoma; MDA-MB-435; MDA-N; RXF 393 renal; SR leukemia; T-47D breast; XF 498 CNS.
Common to all, as to experiment: NCI anticancer screen, dose series, 48 h

Regarding `CC(=O)OCC12CCC(C)=CC1OC1C(O)C(OC(C)=O)C2(C)C12CO2` (stereo unspecified), the TGI with COLO 205 colon is 48.8 nM and 30.3 nM; in the experiment with HCT-116 colon, 34.2 nM and 15 nM; with HOP-18 NSCLC, 108 nM and 379 nM; with HS 578T breast, 40.8 nM and 27.9 nM; in the experiment with KM20L2 colon it was 44.2 nM; in the experiment on LOX IMVI melanoma, 22.4 nM. For the same compound, the TGI in the experiment on MDA-MB-435 was 29.2 nM and 24.7 nM; in the experiment on MDA-N, 47.2 nM and 37.9 nM; in the experiment with RXF 393 renal it was 4.13 nM and 35.6 nM and 23.5 nM; with SR leukemia, 12.5 nM and 14.2 nM; with T-47D breast, 65.9 nM and 237 nM; in the experiment with XF 498 CNS it was 3.03 nM and 21.9 nM. Also, the GI50 with HOP-18 NSCLC was 27.6 nM; with MDA-MB-435 it was 10.1 nM; in the experiment on MDA-N it was 16.8 nM and 13.6 nM; in the experiment on SR leukemia, 1.23 nM.

(Values after PubChem BioAssay (NCI).)
